Measured values taken from paper PMC2637922, “Active-Site Inhibitors of mTOR Target Rapamycin-Resistant Outputs of mTORC1 and mTORC2” (PLoS Biology, 2009).

Assays:
[1] = tested on: Akt substrates GSK3α/β, TSC2, and FoxO1/O3a in L6 myotubes; experiment: Akt substrate phosphorylation in L6 myotubes (Western blot); format: cell-based
[2] = tested on: Akt phosphorylation in wild-type MEFs; experiment: Akt phosphorylation in primary wild-type MEFs (Western blot); format: cell-based, mouse
[3] = tested on: 4EBP1 bound to eIF4E in L6 myotube lysates; experiment: Cap pull-down assay (m7GTP beads); format: cell-based
Description: L6 myotubes from one well of a six-well plate were lysed in 300 μl of cap lysis buffer as described above. 50 μl of detergent-free cap lysis buffer and 20 μl of pre-washed cap beads were added to 150 μl of cleared lysate and incubated at 4 °C overnight with tumbling. The beads were washed twice with 400 μl of cap wash buffer (cap lysis buffer with 0.5% NP-40 instead of 1% NP-40) and twice with 500 μl of PBS. The beads were boiled in SDS-PAGE sample buffer and the retained proteins analyzed by Western blot. All antibodies were from Cell Signaling Technologies except for the anti-eIF4E antibody, which was from BD Biosciences.

[4] = tested on: actin stress fibers in NIH 3T3 cells

`CC(C)n1nc(-c2cc3cc(O)ccc3[nH]2)c2c(N)ncnc21` [PP242] was tested, and the “phosphorylation of Akt and its substrates” value [1] was “only partially inhibited”, the “constitutive phosphorylation of the turn motif of Akt at T450” value [2] was “no effect” and the “phosphorylation of Akt at both S473 and T308” value [2] was “inhibited”. For the same molecule, the “insulin-stimulated release of 4EBP1 from eIF4E (retention on m7GTP beads)” value [3] was “much larger retention of 4EBP1” and the “morphology or abundance of actin stress fibers” value [4] was “no obvious effect”.
